Reference: PMC6100582, “Asymmetric Primaquine and Halogenaniline Fumardiamides as Novel Biologically Active Michael Acceptors” (Molecules : A Journal of Synthetic Chemistry and Natural …, 2018)

Columns and labels:
in vitro = conditions: African green monkey
[1] = test system: Bacillus cereus ATCC 11778; assay: Antimicrobial susceptibility assay in vitro (MIC determination); type: cell-based; conditions: ATCC11778, 18 h
Experimental: (§1) (b) Other Gram-positive (Streptococcus pneumoniae MFBF 10373, Bacillus cereus ATCC 11778, and Bacillus subtilis ATCC 6633) and Gram-negative bacteria species (Pseudomonas aeruginosa ATCC 27853, Escherichia coli ATCC 10536, Serratia marcescens ATCC 10905, Proteus mirabilis MFBF 10430, Acinetobacter baumannii MFBF 10913, and Salmonella enteritidis MFBF 11945): […] Cell suspensions were prepared from stock cultures using phosphate-buffered saline (PBS) (Gibco Laboratories, USA) pH 7.4 and adjusted to 0.5 McFarland units using a nephelometer (ATB 1550, BioMérieux, France). Stock solutions of the tested compounds were prepared in DMSO (10 mg/mL). […] The absorbance was recorded at 540 nm. As a positive quality control (susceptibility of strains) tetracycline hydrochloride (TC) (Sigma-Aldrich) was added into wells.

[2] = test system: Streptococcus pneumoniae MFBF 10373; assay: as above; type: cell-based; conditions: MFBF10373, 18 h
Experimental: as §1

[3] = test system: Bacillus subtilis ATCC 6633; assay: as above; type: cell-based; conditions: ATCC6633, 18 h
Experimental: as §1

[4] = test system: Acinetobacter baumannii MFBF 10913; assay: as above; type: cell-based; conditions: MFBF10913, 18 h
Experimental: as §1

[5] = test system: Candida albicans ATCC 90028; assay: In vitro antifungal susceptibility testing (MIC determination); type: cell-based; conditions: ATCC90028
[6] = test system: Enterococcus faecalis ATCC 29212; assay: Antimicrobial susceptibility assay in vitro (MIC determination); type: cell-based; conditions: ATCC29212, 24 h
[7] = test system: Mycobacterium marinum CAMP 5644; assay: Antimycobacterial susceptibility assay (MIC determination); type: cell-based; conditions: CAMP5644, 504 h
Experimental: The broth dilution micro-method in Middlebrook 7H9 medium (Difco, Lawrence, KS, USA) supplemented with ADC Enrichment (Becton, Dickinson and Comp.) was used to determine MIC as previously described. […] Bacterial inocula were prepared by transferring colonies from culture to sterile water. The cell density was adjusted to 0.5 McFarland units using a densitometer (Densi-La-Meter, LIAP, Riga, Latvia). The final inoculum was made by 1:1000 dilution of the suspension with sterile water. Drug-free controls, sterility controls and controls consisted of medium and DMSO (Sigma-Aldrich, St. Louis, MO, USA) alone were included. […] Ciprofloxacin (CIP), rifampicin (RIF) and isoniazid (INH) (Sigma-Aldrich, St. Louis, MO, USA) were used as the standards.

[8] = test system: Mycobacterium tuberculosis H37Ra; assay: as above; type: cell-based; conditions: 168 h, 7 days, 37 °C, alamarBlue
Experimental: (c) Mycobacteria: Mycobacterium tuberculosis H37Ra ATCC 25177 was grown in Middlebrook broth (MB), supplemented with Oleic-Albumin-Dextrose-Catalase (OADC) supplement (Difco, Lawrence, KS, USA) and mycobactin J (2 μg/mL). At log phase growth, a culture sample (10 mL) was centrifuged at 15,000 rpm/20 min using a bench-top centrifuge (MPW-65R, MPW Med Instruments, Poland). Following removal of the supernatant, the pellet was washed in fresh Middlebrook 7H9GC broth and re-suspended in fresh, ODAC-supplemented MB (10 mL). The turbidity was adjusted to match McFarland standard No. 1 (3 × 10^8 CFU) with MB broth. A further 1:20 dilution of the culture was then performed in MB broth. The antimicrobial susceptibility of M. tuberculosis was investigated in a 96-well plate format. In these experiments, sterile deionised water (300 µl) was added to all outer-perimeter wells of the plates to minimize evaporation of the medium in the test wells during incubation. Each evaluated compound (100 µL) was incubated with M. tuberculosis (100 µl). […] Following incubation, 10% of alamarBlue (Difco, Lawrence, KS, USA) was mixed into each well, and readings at 570 nm and 600 nm were taken, initially for background subtraction and subsequently after 24 h reincubation. […] For non-interfering compounds, a blue colour in the well was interpreted as the absence of growth, and a pink colour was scored as growth.

[9] = test system: Staphylococcus aureus ATCC 6538; assay: Antimicrobial susceptibility assay in vitro (MIC determination); type: cell-based; conditions: ATCC6538
Vero cell cultures = conditions: African green monkey

Row | SMILES | CC50 (in vitro) | MIC [1] | MIC [2] | MIC [3] | MIC [4] | MIC [5] | MIC [6] | MIC [7] | MIC [8] | MIC [9] | Cytotoxicity MCC (minimum cytotoxic concentration) (Vero cell cultures)
1 | COc1cc(NC(C)CCCN)c2ncccc2c1 (centres unmarked) [PQ, primaquine] | > 50 µg/mL | 70 µg/mL (≈ 270 µM) | 50 µg/mL (≈ 193 µM) | 80 µg/mL (≈ 308 µM) | 50 µg/mL (≈ 193 µM) | > 100 µg/mL | 128 µg/mL (≈ 494 µM) | 256 µg/mL (≈ 987 µM) | 256 µg/mL (≈ 987 µM) | 50 µg/mL (≈ 193 µM) | –
2 | NC(=O)c1ncn([C@@H]2O[C@H](CO)[C@@H](O)[C@H]2O)n1 [RIB, ribavirin, reference compound] | – | – | – | – | – | – | – | – | – | – | >250

Converted amounts (≈) assume the structure as drawn.
